Values of other authors as cited in PMC10818746, “Inhibition of CYP1A1 Alleviates Colchicine-Induced Hepatotoxicity” (Toxins, 2024).

How the values were obtained:
liver [1] = settings: cited from earlier work
liver [2] = settings: clinical case; cited from earlier work

COc1cc2c(c(OC)c1OC)-c1ccc(OC)c(=O)cc1[C@@H](NC(C)=O)CC2 [colchicine, Colchicine]
high dose that can cause liver damage in mice (liver [1]): 4 mg/kg
large doses at which liver damage occurred (case report) (liver [2]): > 0.5 mg/kg
